Measured values taken from ChEMBL document CHEMBL4507300, “Data for DCP probe T-26c” (2021).

Protein sequences, listed by entry. Tags and fused reporters are not part of them. Lines headed by an entry give the natural chain unless they say otherwise; changes in a name come on top.
UniProt P11802: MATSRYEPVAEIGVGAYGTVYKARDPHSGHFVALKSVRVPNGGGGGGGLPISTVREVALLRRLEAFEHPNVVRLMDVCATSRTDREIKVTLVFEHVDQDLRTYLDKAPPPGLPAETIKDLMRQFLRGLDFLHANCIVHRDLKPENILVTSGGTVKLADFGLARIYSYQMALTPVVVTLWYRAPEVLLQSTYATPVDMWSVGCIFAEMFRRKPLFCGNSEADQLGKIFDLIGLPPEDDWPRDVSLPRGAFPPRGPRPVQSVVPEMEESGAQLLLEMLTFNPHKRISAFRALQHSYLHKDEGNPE
UniProt P04629: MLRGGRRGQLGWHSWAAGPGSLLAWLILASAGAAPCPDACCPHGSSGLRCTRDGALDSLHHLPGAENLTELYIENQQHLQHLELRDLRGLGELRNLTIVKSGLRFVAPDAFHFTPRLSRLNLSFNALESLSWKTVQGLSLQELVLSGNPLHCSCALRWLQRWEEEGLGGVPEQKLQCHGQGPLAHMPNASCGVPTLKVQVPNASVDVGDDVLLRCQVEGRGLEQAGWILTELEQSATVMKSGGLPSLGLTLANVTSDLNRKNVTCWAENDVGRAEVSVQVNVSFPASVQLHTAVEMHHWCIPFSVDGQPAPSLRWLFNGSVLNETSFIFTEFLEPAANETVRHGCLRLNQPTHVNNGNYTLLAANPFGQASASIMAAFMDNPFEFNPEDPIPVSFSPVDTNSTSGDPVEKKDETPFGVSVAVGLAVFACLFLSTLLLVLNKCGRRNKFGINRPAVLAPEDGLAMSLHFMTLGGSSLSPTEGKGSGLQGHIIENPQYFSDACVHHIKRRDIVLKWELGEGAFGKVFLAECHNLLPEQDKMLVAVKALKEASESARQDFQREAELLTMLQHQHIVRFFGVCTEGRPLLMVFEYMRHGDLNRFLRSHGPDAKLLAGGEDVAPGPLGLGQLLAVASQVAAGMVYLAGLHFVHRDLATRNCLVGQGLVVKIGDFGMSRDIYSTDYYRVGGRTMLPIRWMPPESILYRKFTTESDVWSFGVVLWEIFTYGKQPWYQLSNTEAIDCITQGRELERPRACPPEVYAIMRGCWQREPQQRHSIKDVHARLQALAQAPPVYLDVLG
UniProt Q5S007: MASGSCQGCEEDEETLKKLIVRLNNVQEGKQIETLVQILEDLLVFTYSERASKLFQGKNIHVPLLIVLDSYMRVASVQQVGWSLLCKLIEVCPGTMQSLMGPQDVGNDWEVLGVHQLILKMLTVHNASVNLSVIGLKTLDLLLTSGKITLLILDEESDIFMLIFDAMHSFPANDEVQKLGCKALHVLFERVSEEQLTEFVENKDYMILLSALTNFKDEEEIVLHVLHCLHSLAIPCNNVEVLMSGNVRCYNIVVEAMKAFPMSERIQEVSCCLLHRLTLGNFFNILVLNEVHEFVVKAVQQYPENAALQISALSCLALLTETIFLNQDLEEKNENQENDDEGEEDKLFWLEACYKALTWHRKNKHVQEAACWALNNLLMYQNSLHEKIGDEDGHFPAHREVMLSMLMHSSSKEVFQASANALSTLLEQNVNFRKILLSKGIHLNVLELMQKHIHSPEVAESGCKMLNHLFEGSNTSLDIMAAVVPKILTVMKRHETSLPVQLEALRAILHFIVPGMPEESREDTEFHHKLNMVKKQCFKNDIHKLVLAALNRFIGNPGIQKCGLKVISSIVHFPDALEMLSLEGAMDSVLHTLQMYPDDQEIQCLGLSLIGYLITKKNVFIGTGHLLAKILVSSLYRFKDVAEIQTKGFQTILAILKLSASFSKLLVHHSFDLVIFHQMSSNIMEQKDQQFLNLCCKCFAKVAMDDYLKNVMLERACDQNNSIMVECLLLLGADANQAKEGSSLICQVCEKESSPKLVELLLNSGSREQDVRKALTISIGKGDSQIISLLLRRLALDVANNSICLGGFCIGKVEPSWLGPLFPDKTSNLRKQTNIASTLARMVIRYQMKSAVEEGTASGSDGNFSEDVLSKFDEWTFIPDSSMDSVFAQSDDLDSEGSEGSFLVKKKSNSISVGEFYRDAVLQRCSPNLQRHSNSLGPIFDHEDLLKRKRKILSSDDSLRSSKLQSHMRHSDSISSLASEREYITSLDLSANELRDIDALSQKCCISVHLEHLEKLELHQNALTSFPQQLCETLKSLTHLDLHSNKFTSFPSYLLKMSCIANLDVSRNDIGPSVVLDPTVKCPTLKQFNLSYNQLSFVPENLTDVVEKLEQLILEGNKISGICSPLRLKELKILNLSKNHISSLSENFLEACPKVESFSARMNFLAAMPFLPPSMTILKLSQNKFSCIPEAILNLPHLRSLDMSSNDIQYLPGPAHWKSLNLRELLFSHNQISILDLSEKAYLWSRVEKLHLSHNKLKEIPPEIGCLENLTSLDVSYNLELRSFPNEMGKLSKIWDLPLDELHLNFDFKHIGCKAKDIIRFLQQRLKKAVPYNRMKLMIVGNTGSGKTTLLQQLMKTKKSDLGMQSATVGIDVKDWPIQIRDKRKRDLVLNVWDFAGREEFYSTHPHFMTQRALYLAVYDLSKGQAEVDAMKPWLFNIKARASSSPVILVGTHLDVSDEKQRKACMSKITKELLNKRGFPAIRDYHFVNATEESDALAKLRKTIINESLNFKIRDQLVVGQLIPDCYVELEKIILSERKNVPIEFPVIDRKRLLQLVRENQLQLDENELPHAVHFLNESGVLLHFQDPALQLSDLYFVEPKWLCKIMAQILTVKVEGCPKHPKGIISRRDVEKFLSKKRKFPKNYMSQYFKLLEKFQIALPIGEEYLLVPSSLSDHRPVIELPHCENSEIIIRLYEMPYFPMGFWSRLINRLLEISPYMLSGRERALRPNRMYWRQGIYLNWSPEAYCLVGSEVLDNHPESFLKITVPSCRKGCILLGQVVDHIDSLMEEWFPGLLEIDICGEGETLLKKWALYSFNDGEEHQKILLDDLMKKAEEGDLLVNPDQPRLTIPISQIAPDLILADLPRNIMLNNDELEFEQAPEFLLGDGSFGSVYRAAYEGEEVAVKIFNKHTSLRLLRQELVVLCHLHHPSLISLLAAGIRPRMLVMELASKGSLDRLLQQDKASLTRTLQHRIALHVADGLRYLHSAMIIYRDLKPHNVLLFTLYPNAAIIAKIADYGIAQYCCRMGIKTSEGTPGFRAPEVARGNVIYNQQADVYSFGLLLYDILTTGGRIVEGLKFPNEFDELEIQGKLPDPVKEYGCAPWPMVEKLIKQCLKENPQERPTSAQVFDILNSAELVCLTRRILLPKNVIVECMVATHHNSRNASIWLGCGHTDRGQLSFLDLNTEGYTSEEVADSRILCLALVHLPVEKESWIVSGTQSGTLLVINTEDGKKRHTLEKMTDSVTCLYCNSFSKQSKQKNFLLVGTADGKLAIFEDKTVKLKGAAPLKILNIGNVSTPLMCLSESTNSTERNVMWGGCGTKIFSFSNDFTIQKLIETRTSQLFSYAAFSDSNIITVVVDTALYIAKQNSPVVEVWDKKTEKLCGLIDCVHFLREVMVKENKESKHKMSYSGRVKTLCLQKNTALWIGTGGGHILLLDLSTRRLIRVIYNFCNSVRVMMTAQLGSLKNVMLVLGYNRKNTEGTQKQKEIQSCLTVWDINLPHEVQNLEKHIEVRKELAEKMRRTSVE

Legend:
[1] = system: Receptor-type tyrosine-protein kinase FLT3 (Homo sapiens), P36888 [D835V]; settings: Compound concentration 1000.0 nM
[2] = biological target: Cyclin-dependent kinase 4 (Homo sapiens) (UniProt P11802); settings: Compound concentration 1000.0 nM
[3] = biological target: High affinity nerve growth factor receptor (Homo sapiens) (UniProt P04629); settings: Compound concentration 1000.0 nM
[4] = biological target: Leucine-rich repeat serine/threonine-protein kinase 2 (Homo sapiens) (UniProt Q5S007); settings: Compound concentration 1000.0 nM
[5] = biological target: Collagenase 3 (Bos taurus) (UniProt O77656); settings: at 0.1 µM

COc1cccc(CNC(=O)c2nc3scc(COCc4ccc(C(=O)O)cc4)c3c(=O)[nH]2)c1 [T-26c]
active: residual activity [1] 44.2% | residual activity [2] 43.5% | residual activity [3] 46.7% | residual activity [4] 43% | inhibition [5] 87%
